We go through five compounds from patent US12478617B2, “Lipidated peptide inhibitors of interleukin-23 receptor” (JANSSEN BIOTECH, INC., priority 2021, dated 2025).

In the assay the target is T1, IL-23R (Homo sapiens, UniProt Q5VWK5).
T1 construct: HEK293 cells containing IL-23R, IL-12RP31 and a firefly luciferase reporter gene driven by a STAT-inducible promoter (Promega); host or cells: HEK293
T1 sequence (Q5VWK5 24-629): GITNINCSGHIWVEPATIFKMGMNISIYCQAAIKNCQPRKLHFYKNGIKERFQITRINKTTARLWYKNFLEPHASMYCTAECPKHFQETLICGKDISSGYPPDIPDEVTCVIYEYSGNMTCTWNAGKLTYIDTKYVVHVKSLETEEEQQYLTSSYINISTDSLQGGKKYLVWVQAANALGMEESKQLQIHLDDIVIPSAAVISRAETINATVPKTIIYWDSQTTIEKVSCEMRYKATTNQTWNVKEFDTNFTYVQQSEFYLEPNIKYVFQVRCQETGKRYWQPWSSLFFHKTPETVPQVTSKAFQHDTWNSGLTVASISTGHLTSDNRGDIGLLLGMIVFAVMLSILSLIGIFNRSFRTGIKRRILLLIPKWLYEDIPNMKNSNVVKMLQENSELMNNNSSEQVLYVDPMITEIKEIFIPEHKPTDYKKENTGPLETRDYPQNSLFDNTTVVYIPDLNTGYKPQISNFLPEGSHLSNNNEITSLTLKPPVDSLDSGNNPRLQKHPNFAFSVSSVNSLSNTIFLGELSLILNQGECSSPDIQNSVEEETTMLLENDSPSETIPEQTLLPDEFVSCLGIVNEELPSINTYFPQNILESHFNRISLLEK
Nature of the assay: IL23R Reporter Assay. Type of assay: cell-based. Particulars: HEK293 cells containing IL-23R, IL-12Rβ1 and STAT-inducible firefly luciferase reporter; 10 ng/mL IL-23 (EC90); 5 h at 37° C.; read-out: IC50. An excerpt:
IL-23 binding to IL-23 receptors results in the activation of the Signal Transducer and Activator of Transcription 3 (STAT3) by phosphorylation and downstream signaling events. Accordingly. the ability of the inhibitors described herein to block IL-23 action can be assessed by monitoring the status of STAT3 activation in response to IL-23. This may be accomplished in reporter cell assays or in intact cells such as peripheral blood mononuclear cells (PBMCs).
Compounds were serially diluted in 100% (v/v) DMSO) and plated using an Echo acoustic dispenser (Labcyte) into 1536-well non-treated black assay plates (Corning #9146). 3 µL of HEK293 cells containing IL-23R, IL-12RP31 and a firefly luciferase reporter gene driven by a STAT-inducible promoter (Promega) were added to the plates (4000 cells/well), followed by 3 μL of 10 ng/mL IL-23 (equivalent to EC90 concentration). After 5 h at 37° C., 5% CO2, 95% relative humidity, cells were placed at 20° C. and treated with BioGlo reagent (Promega) according to the Manufacturer's instructions. Luminescence was measured on a Pherastar FSX (BMG LabTech). The data, provided in Tables 5a and 5b, were normalized to IL-23 treatment (0% inhibition) and 30 μM of control inhibitor (100% inhibition), and IC50 values were determined using a 4-parameter Hill equation.
(In a reporter assay the amount or activity of a reporter protein is the signal.)

`CC(=O)NCCCC[C@@H]1NC(=O)[C@H](Cc2c[nH]c3c(C)cccc23)NC(=O)[C@H]([C@@H](C)O)NC(=O)[C@H](CC(N)=O)NC(=O)[C@@H](NC(=O)[C@@H](CCCNC(=N)N)NC(C)=O)C(C)(C)SSC(C)(C)[C@@H](C(=O)N[C@@H](Cc2ccc(OCCN)cc2)C(=O)N[C@@H](Cc2ccc3ccccc3c2)C(=O)NC2(C(=O)N[C@@H](CCC(=O)O)C(=O)N[C@@H](CC(N)=O)C(=O)N[C@@H](Cc3cccnc3)C(=O)N[C@@H](CCCCNC(=O)COCCOCCNC(=O)COCCOCCNC(=O)CC[C@H](NC(=O)CCCCCCCCCCCCCCCCC(=O)O)C(=O)O)C(N)=O)CCOCC2)NC1=O` [Example 18, MeCO-r-Pen*-N-T-7MeW-K(Ac)-Pen*-AEF-2Nal-THP-E-N-3Pya-K(PEG2PEG2gEC18OH)-CONH2]: the IC50 stood at 0.12 nM.
The value for `CC(=O)NCCCC[C@@H]1NC(=O)[C@H](Cc2c[nH]c3c(C)cccc23)NC(=O)[C@H]([C@@H](C)O)NC(=O)[C@H](CC(N)=O)NC(=O)[C@@H](NC(=O)[C@@H](CCCNC(=N)N)NC(C)=O)C(C)(C)SSC(C)(C)[C@@H](C(=O)N[C@@H](Cc2ccc(OCCN)cc2)C(=O)N[C@@H](Cc2ccc3ccccc3c2)C(=O)NC2(C(=O)N[C@@H](CCC(=O)O)C(=O)N[C@@H](CC(N)=O)C(=O)N[C@@H](Cc3cccnc3)C(=O)N[C@@H](CCCCNC(=O)COCCOCCNC(=O)COCCOCCNC(=O)CC[C@H](NC(=O)CCCCCCCCCCCCCCC(=O)O)C(=O)O)C(N)=O)CCOCC2)NC1=O` [Example 23, MeCO-r-Pen*-N-T-7MeW-K(Ac)-Pen*-AEF-2Nal-THP-E-N-3Pya-K(PEG2PEG2gEC16OH)-CONH2] was 0.12 nM; that for `CC(=O)NCCCC[C@@H]1NC(=O)[C@H](Cc2c[nH]c3c(C)cccc23)NC(=O)[C@H]([C@@H](C)O)NC(=O)[C@H](CC(N)=O)NC(=O)[C@@H](NC(=O)[C@@H](CCCNC(=N)N)NC(C)=O)C(C)(C)SSC(C)(C)[C@@H](C(=O)N[C@@H](Cc2ccc(OCCN)cc2)C(=O)N[C@@H](Cc2ccc3ccccc3c2)C(=O)NC2(C(=O)N[C@@H](CCCCNC(=O)COCCOCCNC(=O)COCCOCCNC(=O)CC[C@H](NC(=O)CCCCCCCCCCCCCCC(=O)O)C(=O)O)C(=O)N[C@@H](CC(N)=O)C(=O)N[C@@H](Cc3cccnc3)C(=O)N(C)CC(N)=O)CCOCC2)NC1=O` [Example 28, MeCO-r-Pen*-N-T-7MeW-K(Ac)-Pen*-AEF-2Nal-THP-K(PEG2PEG2gEC16OH)-N-3Pya-Sar-CONH2] was 0.021 nM.
Take `CC(=O)NCCCC[C@@H]1NC(=O)[C@H](Cc2c[nH]c3c(C)cccc23)NC(=O)[C@H]([C@@H](C)O)NC(=O)[C@H](CC(N)=O)NC(=O)[C@@H](NC(C)=O)C(C)(C)SSC(C)(C)[C@@H](C(=O)N[C@@H](Cc2ccc(OCCN)cc2)C(=O)N[C@@H](Cc2ccc3ccccc3c2)C(=O)NC2(C(=O)N[C@@H](CCCCNC(=O)CC[C@H](NC(=O)CCCCCCCCCCCCCCCCC(=O)O)C(=O)O)C(=O)N[C@@H](CC(N)=O)C(=O)N[C@@H](Cc3cccnc3)C(=O)N(C)CC(N)=O)CCOCC2)NC1=O` [Example 30, MeCO-Pen*-N-T-7MeW-K(Ac)-Pen*-AEF-2Nal-THP-K(gEC18OH)-N-3Pya-Sar-CONH2]: the IC50 stood at 0.17 nM.
The value for `CC(=O)NCCCC[C@@H]1NC(=O)[C@H](Cc2c[nH]c3c(C)cccc23)NC(=O)[C@H]([C@@H](C)O)NC(=O)[C@H](CC(N)=O)NC(=O)[C@@H](NC(C)=O)C(C)(C)SSC(C)(C)[C@@H](C(=O)N[C@@H](Cc2ccc(OCCN)cc2)C(=O)N[C@@H](Cc2ccc3ccccc3c2)C(=O)NC2(C(=O)N[C@@H](CCCCNC(=O)CCOCCOCCOCCOCCOCCOCCNC(=O)CC[C@H](NC(=O)CCCCCCCCCCCCCCCCC(=O)O)C(=O)O)C(=O)N[C@@H](CC(N)=O)C(=O)N[C@@H](Cc3cccnc3)C(=O)N(C)CC(N)=O)CCOCC2)NC1=O` [Example 33, MeCO-Pen*-N-T-7MeW-K(Ac)-Pen*-AEF-2Nal-THP-K(PEG6gEC18OH)-N-3Pya-Sar-CONH2] was 0.046 nM.

Usually IC50 stands for the point on the concentration scale where inhibition reaches its midpoint.
